Test results taken from paper PMC11510237, “New Pyrazole/Pyrimidine-Based Scaffolds as Inhibitors of Heat Shock Protein 90 Endowed with Apoptotic Anti-Breast Cancer Activity” (2024).

How the values were obtained:
[1] = system: MCF-7 cells
[2] = system: MDA-MB231 cells

Nc1nn(-c2ccc([N+](=O)[O-])cc2[N+](=O)[O-])c(N)c1N=Nc1cccc([N+](=O)[O-])c1
Inhibitory % ([1]; MCF-7, 1 µg/ml): 0%
Viability % ([1]; MCF-7, 1 µg/ml): 100%
Inhibitory % ([1]; MCF-7, 2 µg/ml): 0%
Viability % ([1]; MCF-7, 2 µg/ml): 100%
Inhibitory % ([1]; MCF-7, 3.9 µg/ml): 0%
Viability % ([1]; MCF-7, 3.9 µg/ml): 100%
Inhibitory % ([1]; MCF-7, 7.8 µg/ml): 0%
Viability % ([1]; MCF-7, 7.8 µg/ml): 100%
Inhibitory % ([1]; MCF-7, 15.6 µg/ml): 0%
Viability % ([1]; MCF-7, 15.6 µg/ml): 100%
Inhibitory % ([1]; MCF-7, 31.25 µg/ml): 0%
Viability % ([1]; MCF-7, 31.25 µg/ml): 100%
Inhibitory % ([1]; MCF-7, 62.5 µg/ml): 1.95%
Viability % ([1]; MCF-7, 62.5 µg/ml): 98.05%
Inhibitory % ([1]; MCF-7, 125 µg/ml): 17.24%
Viability % ([1]; MCF-7, 125 µg/ml): 82.76%
Inhibitory % ([1]; MCF-7, 250 µg/ml): 50.73%
Viability % ([1]; MCF-7, 250 µg/ml): 49.27%
Inhibitory % ([1]; MCF-7, 500 µg/ml): 81.21%
Viability % ([1]; MCF-7, 500 µg/ml): 18.79%
Average of Relative viability of cells (%) MDA-231 ([2]; 1.56 µM): 100%
Average of Relative viability of cells (%) MDA-231 ([2]; 3.125 µM): 100%
Average of Relative viability of cells (%) MDA-231 ([2]; 6.25 µM): 100%
Average of Relative viability of cells (%) MDA-231 ([2]; 12.5 µM): 85.2%
Average of Relative viability of cells (%) MDA-231 ([2]; 25 µM): 71.1%
Average of Relative viability of cells (%) MDA-231 ([2]; 50 µM): 59.8%
Average of Relative viability of cells (%) MDA-231 ([2]; 100 µM): 40.7%

Where two headings read alike, the source gives them in different places.
